The values below are quoted from earlier work in patent US9744174B2 (DemeRx, Inc., priority 2013, dated 2017).

The conditions of the series: according to US National highway traffic safety administration; cited from earlier work.

On to `CCC(=O)C(CC(C)N(C)C)(c1ccccc1)c1ccccc1` (stereo not shown) [Methadone, reference compound], for which the Therapeutic level was 0.03 to 0.56 mg/L.
